# Bioassay records as filed in PubChem BioAssay.
# Only some compounds are listed: those with a hit (about 0.73% of all), similar ones and a draw of the others.
# RAD52 inh: inhibitors of human RAD52 DNA annealing; P43351; recombinant RAD52 DNA annealing, FRET fluorescence; inhibition, % at 18.7 µM; hit rate 0.46% among 360,000;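 active = every replicate showing at least 50% inhibition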
# E-selectin induc: E-selectin induction on HUVECs; P16581; HUVEC E-selectin immunofluorescence imaging; normalized: neutral wells 0, TNF-alpha wells 100; activation, % at 7.58 µM; hit rate 0.37% among 260,000; AID 686992;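 active = mean E-selectin-positive cell signal at least 10% of the positive control, reached in at least 60% of replicates, without over 20% cell loss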
#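 assay system = HUVEC, human umbilical vein endothelial cells | input = 3,000 HUVEC seeded per well | medium = EGM-2 growth medium on 0.1% gelatin-coated wells | dosing = one compound dose added by pin transfer | signal = immunofluorescence imaging | read-out basis = % PE-positive cells | control set = TNF-alpha, DMSO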
# RAD54 inh: blocks human RAD54 Holliday junction branch migration; AID 602329; hit rate 0.14% among 360,000; FAM/BHQ fluorescence; Q92698; inhibition, % at 10.4 µM;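 active = mean normalized replicate activity at least 40 and at least half of replicates scoring 40 or more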;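 also: 0% = median of neutral control wells and 100% = median of positive control wells; inhibitors cause a drop in the FAM fluorescence signal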
# XiGFP reactiv: activators of X-chromosome reactivation in mouse fibroblasts | XiGFP mouse fibroblasts, % GFP-positive cells imaging, 3 d; cells co-treated with 5-aza-dC sensitizer; scaled so ellipticine positive control = 100% | hit rate 0.055% among 360,000 | activation, % at 7.58 µM;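 active = mean normalized replicate activation at least 10% and every replicate at or above 10%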;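 also: 0% = median of on-plate neutral control wells and 100% = ellipticine 6 µM median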
#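 material = 68-5-11 XiGFP fibroblast line | medium = DMEM plus 5-aza-dC sensitizer | schedule = 3 days compound exposure | benchmarks = positive control ellipticine, 6 µM final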
# Yeast UUG start-1: alters start codon recognition fidelity in yeast. S. cerevisiae UUG-firefly luciferase reporter, luminescence/redox ratio. 350,000 tested, 0.13% active. activity score, % at 18.7 µM. AID 602363;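 active means replicate mean at a twofold rise or more, about +100% in these data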;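 further: firefly luciferase made from a UUG start codon reports start codon fidelity; reporter light over untreated wells divided by growth signal over untreated wells; some hits fall short of that in this replicate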
# Yeast UUG start-2: alters UUG start codon use in yeast | shares compounds with Yeast UUG start-1 | S. cerevisiae UUG-start firefly luciferase, luminescence, 4 h; 100% means double the DMSO signal | activation, % at 38 µM | 540 tested, under 10 active;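 active = signal increase whose fitted curve reaches an absolute level of 40 at a concentration under 10 µM; inactive = activity opposite to the expected increase, or the rest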
# * = called active by the depositor; i = inactive; . = not tested or not shown; ! = repeats disagree.
# The first 3 records, to show the layout:
# Labels used below – A = RAD52 inh; B = E-selectin induc; C = RAD54 inh; D = XiGFP reactiv; E = Yeast UUG start-1; F = Yeast UUG start-2
CCOC(=O)NNC(=O)C12CC3CC(CC(C3)C1)C2
  A: 0	B: 4	C: 0	D: 0	E: 489*	F: -10
C[C@H]1CN([C@@H](C)CO)S(=O)(=O)c2ccc(C#CCC3CCCC3)cc2O[C@@H]1CN(C)C(=O)CN(C)C
  A: 29	B: 0	C: 0	D: 0	E: 32	F: .
C[C@H](CO)N1C[C@H](C)[C@H](CN(C)Cc2ccc(C(=O)O)cc2)Oc2cc(C#CCC3CCCC3)ccc2S1(=O)=O
  A: 3	B: 0	C: -4	D: 0	E: 182*	F: i

# Main list (from the top)
# Labels used below – A = RAD52 inh; B = E-selectin induc; C = RAD54 inh; D = XiGFP reactiv; E = Yeast UUG start-1; F = Yeast UUG start-2
CCOC(=O)NNC(=O)C12CC3CC(CC(C3)C1)C2
  A: 0	B: 4	C: 0	D: 0	E: 489*	F: -10
C[C@H]1CN([C@@H](C)CO)S(=O)(=O)c2ccc(C#CCC3CCCC3)cc2O[C@@H]1CN(C)C(=O)CN(C)C
  A: 29	B: 0	C: 0	D: 0	E: 32	F: .
C[C@H](CO)N1C[C@H](C)[C@H](CN(C)Cc2ccc(C(=O)O)cc2)Oc2cc(C#CCC3CCCC3)ccc2S1(=O)=O
  A: 3	B: 0	C: -4	D: 0	E: 182*	F: i
C[C@H](CO)N1C[C@H](C)[C@@H](CN(C)C(=O)c2cnccn2)Oc2cc(C#CCC3CCCC3)ccc2S1(=O)=O
  A: -4	B: 0	C: 3	D: 0	E: 121*!	F: -7
C[C@@H]1CN([C@@H](C)CO)S(=O)(=O)c2ccc(C#CCC3CCCC3)cc2O[C@@H]1CN(C)Cc1ccc(C(=O)O)cc1
  A: -9	B: 0	C: -23	D: -1	E: 6	F: .
C[C@@H]1CN([C@H](C)CO)S(=O)(=O)c2ccc(C#CCC3CCCC3)cc2O[C@H]1CN(C)C(=O)CN(C)C
  A: 49	B: 3	C: 8	D: 0	E: 112*	F: i
C[C@@H]1CN([C@H](C)CO)S(=O)(=O)c2ccc(C#CCC3CCCC3)cc2O[C@@H]1CN(C)C(=O)c1cnccn1
  A: -7	B: 1	C: 9	D: 0	E: 2	F: .
CNC[C@H]1Oc2cc(C#CC3CCCCC3)ccc2S(=O)(=O)N([C@H](C)CO)C[C@@H]1C
  A: -27	B: 0	C: 3	D: -1	E: 161*	F: i
CNC[C@H]1Oc2cc(C#CC3CCCCC3)ccc2S(=O)(=O)N([C@@H](C)CO)C[C@@H]1C
  A: .	B: .	C: .	D: 1	E: .	F: .
COc1ccccc1CNC(=O)C[C@H]1CC[C@@H](NC(=O)CC2CC2)[C@@H](CO)O1
  A: -12	B: 0	C: -8	D: 0	E: -22	F: .
COc1ccc(NC(=O)Nc2cccc3c2O[C@H](CN(C)C(=O)NC(C)C)[C@H](C)CN([C@H](C)CO)C3=O)cc1
  A: 6	B: -3	C: -3	D: 0	E: 11	F: .
O=C(C[C@H]1CC[C@@H]2[C@H](COC[C@H](O)CN2C(=O)Nc2cc(Cl)cc(Cl)c2)O1)N1CCCCC1
  A: 6	B: 0	C: 4	D: 0	E: 31	F: .
COc1ccc(-c2ccc([C@H]3[C@H]4CN(C(=O)c5ccccn5)CC(=O)N4[C@H]3CO)cc2)cc1
  A: -5	B: 0	C: .	D: 0	E: .	F: .
Cc1ccc(-c2nc3ccc(C)cn3c2Cc2ccsc2)cc1
  A: -146	B: 0	C: -6	D: 0	E: -1	F: .
Cc1ccc2nc(C(C)(C)C)c(Cc3ccsc3)n2c1
  A: -26	B: 1	C: 4	D: 0	E: 153*	F: 6
O=C(NCC1CC1)c1ccc(-n2ccnc2)c2ccoc12
  A: -12	B: 0	C: -6	D: 0	E: 163*	F: -7
CS(=O)(=O)Nc1cccc(NC(=O)c2ccc(-n3ccnc3)c3ccoc23)c1
  A: -4	B: 1	C: -11	D: 0	E: 115*	F: -8
Cn1nccc1-c1ccc(C(=O)Nc2cccc(NS(C)(=O)=O)c2)c2occc12
  A: -9	B: 0	C: -15	D: 0	E: -15	F: .
CO[C@H]1CN(C)C(=O)c2ccc(NC(=O)C3CCOCC3)cc2OC[C@H](C)N(C(=O)c2ccccc2)C[C@@H]1C
  A: .	B: .	C: .	D: 0	E: .	F: .
O=C1CN(S(=O)(=O)c2cccc(F)c2)C[C@@H]2[C@@H](c3ccc(-c4ccc(F)cc4)cc3)[C@@H](CO)N12
  A: -12	B: 0	C: .	D: 0	E: .	F: .
CC(=O)N1[C@H](CN(C)C(=O)C2CCC2)[C@@H](c2ccccc2)[C@@H]1CO
  A: -1	B: 0	C: -5	D: 1	E: -10	F: .
COc1ccc(C(=O)Nc2ccccc2C(N)=O)cc1
  A: .	B: .	C: -3	D: .	E: -17	F: .
COC(=O)c1ccccc1NC(=O)CNC(=O)c1ccc(OC)cc1
  A: -1	B: .	C: -4	D: 0	E: 264*	F: -11
CC(C)NC(=O)N(C)C[C@H]1OCCCC[C@@H](C)Oc2ccc(NS(=O)(=O)c3ccc(F)cc3)cc2C(=O)N([C@H](C)CO)C[C@H]1C
  A: 10	B: 0	C: 1	D: 0	E: 6	F: .
Cc1cc(-n2c(C)cc(C(=O)CSc3nncn3C)c2C)no1
  A: -5	B: 0	C: 5	D: 0	E: -24	F: .
Cc1cc(-n2c(C)cc(C(=O)CSc3nncn3C(C)C)c2C)no1
  A: -9	B: -2	C: .	D: 0	E: .	F: 4
CCCNC(=O)C[C@@H]1CC[C@@H]2[C@H](COC[C@@H](O)CN2Cc2cccc(F)c2)O1
  A: 2	B: 0	C: -4	D: 0	E: 107*	F: i
CCCNC(=O)C[C@@H]1CC[C@H]2[C@@H](COC[C@H](O)CN2Cc2cccc(F)c2)O1
  A: 4	B: 0	C: 5	D: 0	E: 5	F: .
COc1ccc(CN(C)C[C@H]2Oc3ccc(NC(=O)CCC(F)(F)F)cc3C(=O)N([C@@H](C)CO)C[C@H]2C)cc1
  A: 8	B: .	C: -3	D: 0	E: 15	F: .
CCCc1cc(C(=O)N/N=C/c2ccc(CC)s2)c2ccccc2n1
  A: .	B: .	C: 1	D: .	E: 413*	F: 0
CCc1ccc(/C=N/NC(=O)c2cc(-c3ccncc3)nc3ccccc23)s1
  A: .	B: .	C: .	D: 0	E: .	F: .
COCC(=O)N1CCN(c2ccc([N+](=O)[O-])cc2)CC1
  A: .	B: .	C: 6	D: .	E: 671*	F: -2
CNC[C@H]1OCCCC[C@H](C)Oc2ccc(NS(=O)(=O)c3cccs3)cc2C(=O)N([C@@H](C)CO)C[C@@H]1C
  A: -64	B: 0	C: -4	D: 0	E: .	F: .
Cc1ccccc1-n1c(SCC(=O)c2cc(C)n(C)c2C)nnc1-c1cccnc1
  A: .	B: .	C: .	D: .	E: .	F: -5
COCCn1c(C)cc(C(=O)CSc2nnc(-c3cccnc3)n2-c2ccccc2F)c1C
  A: .	B: .	C: 9	D: .	E: 7	F: .
COc1ccc(N/C(N)=N/c2nc(CSc3nnc(C)s3)cc(=O)[nH]2)cc1
  A: -6	B: .	C: 3	D: 0	E: 172*	F: -2
Cc1ccc(N/C(N)=N/c2nc(CSc3nnc(C)s3)cc(=O)[nH]2)c(C)c1
  A: -29	B: .	C: .	D: 0	E: .	F: .
CN1CCN(CC#CC(C)(O)C2CC3C=CC2C3)CC1 (stereo unspecified)
  A: .	B: .	C: -15	D: .	E: 166*	F: 0
OC(CCN1CCCCC1)(c1ccccc1)C1C[C@@H]2C=C[C@H]1C2 (stereo partly specified)
  A: -5	B: 0	C: -7	D: 0	E: -15	F: .
C[C@H](CO)N1C[C@H](C)[C@H](CN(C)CC2CC2)Oc2cc(C#Cc3ccccc3F)ccc2S1(=O)=O
  A: -11	B: 0	C: 0	D: 0	E: 1	F: .
O=C(CNC(=O)c1ccccc1Br)N/N=C/c1ccco1
  A: -1	B: .	C: 2	D: 0	E: 308*	F: -11
O=C(CNC(=O)c1ccccc1F)N/N=C/c1ccco1
  A: -15	B: 1	C: -2	D: 3	E: -17	F: .
Cc1cc(O)ccc1C1(c2ccc(O)cc2C)OC(=O)c2ccccc21
  A: .	B: .	C: 10	D: .	E: 444*	F: 6
C[C@H]1CN([C@@H](C)CO)C(=O)c2cc(NC(=O)Nc3ccc(F)cc3)ccc2O[C@H]1CN(C)S(=O)(=O)c1ccc(Cl)cc1
  A: -6	B: 0	C: 1	D: 1	E: 30	F: .
COc1ccc(NC(=O)N(C)C[C@H]2Oc3c(NC(=O)Nc4cccc5ccccc45)cccc3C(=O)N([C@@H](C)CO)C[C@@H]2C)cc1
  A: 3	B: 1	C: -8	D: -1	E: 4	F: .
